# Permeability data for macrocyclic peptides

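Conditions beyond the assay type are not listed; see the original paper. Other peptides of the study may be missing here. Peptides that the database sets to -10, its floor, are left out.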

PAMPA measures passive passage through an artificial lipid membrane.
Permeability is in 10^-6 cm/s, converted from the database's log10 values; higher is more permeable.

| structure (SMILES) | PAMPA (10^-6 cm/s) |
|---|---|
| CC(=O)N[C@@H]1C(=O)N2CCC[C@H]2C(=O)N(C)[C@H](CC(C)C)C(=O)N[C@@H](CC(C)C)C(=O)N[C@H](CC(C)C)C(=O)N[C@H](CC(C)C)C(=O)N(C)[C@H](C)C(=O)N[C@@H](CC(C)C)C(=O)N2CCC[C@@H]2C(=O)O[C@@H]1C | 0.083 |
| CC(=O)N1CCC[C@H]1C(=O)N(C)[C@@H](CC(C)C)C(=O)N[C@@H]1C(=O)N[C@H](CC(C)C)C(=O)N[C@@H](CC(C)C)C(=O)N(C)[C@@H](CC(C)C)C(=O)N[C@@H](C)C(=O)N[C@H](CC(C)C)C(=O)N2CCC[C@H]2C(=O)O[C@@H]1C | 1.5 |
| CC(=O)N1CCC[C@@H]1C(=O)N(C)[C@H](CC(C)C)C(=O)N[C@@H]1C(=O)N[C@@H](CC(C)C)C(=O)N[C@@H](CC(C)C)C(=O)N(C)[C@@H](CC(C)C)C(=O)N(C)[C@@H](C)C(=O)N[C@@H](CC(C)C)C(=O)N2CCC[C@H]2C(=O)O[C@@H]1C | 0.49 |
| CC(=O)N1CCC[C@H]1C(=O)N(C)[C@@H](CC(C)C)C(=O)N[C@@H]1C(=O)N[C@@H](CC(C)C)C(=O)N(C)[C@@H](CC(C)C)C(=O)N[C@H](CC(C)C)C(=O)N(C)[C@H](C)C(=O)N[C@@H](CC(C)C)C(=O)N2CCC[C@@H]2C(=O)O[C@@H]1C | 9.5 |
| CC(=O)N[C@@H]1C(=O)N2CCC[C@H]2C(=O)N(C)[C@H](CC(C)C)C(=O)N[C@@H](CC(C)C)C(=O)N[C@@H](CC(C)C)C(=O)N(C)[C@H](CC(C)C)C(=O)N(C)[C@H](C)C(=O)N[C@@H](CC(C)C)C(=O)N2CCC[C@@H]2C(=O)O[C@@H]1C | 1.7 |
| CC(=O)N1CCC[C@@H]1C(=O)N(C)[C@@H](CC(C)C)C(=O)N[C@@H]1C(=O)N[C@@H](CC(C)C)C(=O)N(C)[C@H](CC(C)C)C(=O)N[C@H](CC(C)C)C(=O)N(C)[C@H](C)C(=O)N[C@H](CC(C)C)C(=O)N2CCC[C@H]2C(=O)O[C@@H]1C | 0.89 |
| CC(=O)N1CCC[C@H]1C(=O)N(C)[C@H](CC(C)C)C(=O)N[C@@H]1C(=O)N(C)[C@@H](CC(C)C)C(=O)N(C)[C@H](CC(C)C)C(=O)N(C)[C@H](CC(C)C)C(=O)N[C@@H](C)C(=O)N[C@@H](CC(C)C)C(=O)N2CCC[C@@H]2C(=O)O[C@@H]1C | 2 |
| CC(=O)N1CCC[C@@H]1C(=O)N(C)[C@H](CC(C)C)C(=O)N[C@@H]1C(=O)N[C@H](CC(C)C)C(=O)N[C@@H](CC(C)C)C(=O)N[C@H](CC(C)C)C(=O)N(C)[C@@H](C)C(=O)N[C@@H](CC(C)C)C(=O)N2CCC[C@H]2C(=O)O[C@@H]1C | 3.2 |
| CC(=O)N1CCC[C@@H]1C(=O)N(C)[C@@H](CC(C)C)C(=O)N[C@@H]1C(=O)N(C)[C@@H](CC(C)C)C(=O)N[C@H](CC(C)C)C(=O)N[C@H](CC(C)C)C(=O)N(C)[C@H](C)C(=O)N[C@@H](CC(C)C)C(=O)N2CCC[C@@H]2C(=O)O[C@@H]1C | 4.1 |
| CC(=O)N1CCC[C@@H]1C(=O)N(C)[C@@H](CC(C)C)C(=O)N[C@@H]1C(=O)N(C)[C@H](CC(C)C)C(=O)N(C)[C@@H](CC(C)C)C(=O)N(C)[C@@H](CC(C)C)C(=O)N[C@@H](C)C(=O)N[C@H](CC(C)C)C(=O)N2CCC[C@H]2C(=O)O[C@@H]1C | 7.4 |
| CC(=O)N1CCC[C@@H]1C(=O)N(C)[C@@H](CC(C)C)C(=O)N[C@@H]1C(=O)N(C)[C@@H](CC(C)C)C(=O)N[C@H](CC(C)C)C(=O)N(C)[C@H](CC(C)C)C(=O)N[C@H](C)C(=O)N[C@@H](CC(C)C)C(=O)N2CCC[C@H]2C(=O)O[C@@H]1C | 1.2 |
| CC(=O)N1CCC[C@@H]1C(=O)N(C)[C@@H](CC(C)C)C(=O)N[C@@H]1C(=O)N[C@@H](CC(C)C)C(=O)N(C)[C@H](CC(C)C)C(=O)N[C@H](CC(C)C)C(=O)N(C)[C@H](C)C(=O)N[C@@H](CC(C)C)C(=O)N2CCC[C@@H]2C(=O)O[C@@H]1C | 8.9 |
| CC(=O)N1CCC[C@@H]1C(=O)N(C)[C@H](CC(C)C)C(=O)N[C@@H]1C(=O)N[C@H](CC(C)C)C(=O)N(C)[C@H](CC(C)C)C(=O)N[C@@H](CC(C)C)C(=O)N(C)[C@H](C)C(=O)N[C@H](CC(C)C)C(=O)N2CCC[C@H]2C(=O)O[C@@H]1C | 6.9 |
| CC(=O)N1CCC[C@@H]1C(=O)N(C)[C@@H](CC(C)C)C(=O)N[C@@H]1C(=O)N(C)[C@H](CC(C)C)C(=O)N[C@@H](CC(C)C)C(=O)N(C)[C@@H](CC(C)C)C(=O)N(C)[C@@H](C)C(=O)N[C@H](CC(C)C)C(=O)N2CCC[C@@H]2C(=O)O[C@@H]1C | 2.2 |
| CC(=O)N1CCC[C@H]1C(=O)N[C@@H]1C(=O)N[C@H](CC(C)C)C(=O)N(C)[C@@H](CC(C)C)C(=O)N(C)[C@@H](CC(C)C)C(=O)N[C@@H](CC(C)C)C(=O)N(C)[C@@H](C)C(=O)N[C@@H](CC(C)C)C(=O)N2CCC[C@@H]2C(=O)O[C@@H]1C | 11 |
| CC(=O)N1CCC[C@H]1C(=O)N(C)[C@H](CC(C)C)C(=O)N[C@@H]1C(=O)N[C@H](CC(C)C)C(=O)N(C)[C@H](CC(C)C)C(=O)N[C@H](CC(C)C)C(=O)N[C@@H](C)C(=O)N[C@@H](CC(C)C)C(=O)N2CCC[C@@H]2C(=O)O[C@@H]1C | 5 |
| CC(=O)N1CCC[C@@H]1C(=O)N(C)[C@@H](CC(C)C)C(=O)N[C@@H]1C(=O)N(C)[C@H](CC(C)C)C(=O)N[C@H](CC(C)C)C(=O)N(C)[C@H](CC(C)C)C(=O)N(C)[C@H](C)C(=O)N[C@@H](CC(C)C)C(=O)N2CCC[C@H]2C(=O)O[C@@H]1C | 5.5 |
| CC(=O)N1CCC[C@H]1C(=O)N[C@@H]1C(=O)N[C@H](CC(C)C)C(=O)N[C@H](CC(C)C)C(=O)N[C@@H](CC(C)C)C(=O)N[C@@H](CC(C)C)C(=O)N[C@@H](C)C(=O)N[C@@H](CC(C)C)C(=O)N2CCC[C@@H]2C(=O)O[C@@H]1C | 0.21 |
| CC(=O)N1CCC[C@@H]1C(=O)N(C)[C@@H](CC(C)C)C(=O)N[C@@H]1C(=O)N(C)[C@@H](CC(C)C)C(=O)N[C@H](CC(C)C)C(=O)N(C)[C@H](CC(C)C)C(=O)N(C)[C@@H](C)C(=O)N[C@H](CC(C)C)C(=O)N2CCC[C@H]2C(=O)O[C@@H]1C | 4.4 |
| CC(=O)N1CCC[C@H]1C(=O)N(C)[C@@H](CC(C)C)C(=O)N[C@@H]1C(=O)N[C@@H](CC(C)C)C(=O)N(C)[C@H](CC(C)C)C(=O)N(C)[C@@H](CC(C)C)C(=O)N(C)[C@@H](C)C(=O)N[C@@H](CC(C)C)C(=O)N2CCC[C@@H]2C(=O)O[C@@H]1C | 2.4 |

Collected by the curators of CycPeptMPDB (Li et al. 2023) from Kelly et al. 2021, doi:10.1021/jacs.0c06115.